Data on one compound can be found in paper PMC9369162, “Substrates of the Human Brain Proton-Organic Cation Antiporter and Comparison with Organic Cation Transporter 1 Activities” (International Journal of Molecular Sciences, 2022).

This assay addresses T1, OCT1 (Homo sapiens, UniProt O15245).
T1 construct: expressed in transfected cells; host or cells: HEK293
T1 sequence (O15245 1-554): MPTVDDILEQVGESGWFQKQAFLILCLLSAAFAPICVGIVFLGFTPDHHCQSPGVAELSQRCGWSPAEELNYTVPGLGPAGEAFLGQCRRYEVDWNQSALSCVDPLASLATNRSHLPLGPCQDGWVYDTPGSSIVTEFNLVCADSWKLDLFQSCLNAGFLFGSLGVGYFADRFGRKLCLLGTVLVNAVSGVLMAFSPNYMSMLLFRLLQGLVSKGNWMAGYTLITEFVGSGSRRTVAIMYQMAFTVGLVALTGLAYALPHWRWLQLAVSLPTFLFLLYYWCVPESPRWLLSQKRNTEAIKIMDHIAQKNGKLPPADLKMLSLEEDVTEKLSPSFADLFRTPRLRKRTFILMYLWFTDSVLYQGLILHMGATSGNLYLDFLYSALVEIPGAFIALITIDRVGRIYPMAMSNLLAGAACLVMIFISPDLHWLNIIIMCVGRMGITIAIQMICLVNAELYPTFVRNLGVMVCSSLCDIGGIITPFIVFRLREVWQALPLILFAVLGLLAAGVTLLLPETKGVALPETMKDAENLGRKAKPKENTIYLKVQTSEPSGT
In words: Cell uptake in OCT1 overexpressing HEK293 cells over empty-vector transfected cells. It counts as cell-based.

For `CC(Cc1ccc(O)cc1)NCC(O)c1cc(O)cc(O)c1` (stereo not shown) [Fenoterol], the “OCT1 Ratio” value stood at 13.90.
